Laboratory results taken from PMC4544722 (Drug Design, Development and Therapy, 2015).

Key:
[1] = stability of ECH in K-R buffer and intestinal perfusate; type: in vitro ADME, rat; settings: K-R buffer solution and intestinal perfusate, 37°C, 2-hour incubation
[2] = rats; cited from earlier work
[3] = pharmacokinetic study after oral administration in rats; type: in vivo, rat; settings: single oral dose, ECH alone and combinations
[4] = everted gut sac model in vitro
[5] = nonspecific binding of ECH to intestinal walls and tubes; type: in vitro ADME, rat; settings: 2-h incubation
[6] = single-pass intestinal perfusion model in situ
[7] = ECH 0.09 mg/mL, duodenum, jejunum, ileum versus colon

In the case of Echinacoside, the stability [1] is given as “stable”, the oral bioavailability [2] is given as 0.83% and the pharmacokinetic model fit [3] is given as “two-compartment model”. For the same substance, the “site dependence of absorption (F and Papp)” value [4, 7] was “mostly absorbed in the small intestine rather than the colon”, the “apparent permeability coefficient (Papp)” value ([4]; everted gut sac, range over the study) was 2.99 to 9.86 ×10⁻⁶ cm/s and the “nonspecific binding to intestinal wall and tubes” value [5] was “no ECH was absorbed by intestinal wall and tubes”. For the same substance, the “site dependence of absorption (Ka and Peff)” value [6, 7] was “higher absorption in small intestine segments compared to colon segment”, the “highest permeability (Peff) in the whole intestine” value ([6]; in situ perfusion) was 3.23 ×10⁻⁶ cm/s and the “effective permeability coefficient (Peff)” value ([6]; in situ perfusion, range over the study) was 0.83 to 3.23 ×10⁻⁶ cm/s. For the same substance, the “concentration above which saturable absorption appeared” value ([6]; jejunum, ECH 0.03, 0.09, 0.27 mg/mL) was “higher than 0.09 mg/mL”.
